Data: patent US20170151264A1, “COMBINATION” (Almirall, S.A., priority 2014, published 2017)

By UniProt entry, the sequences of proteins in these tests, tags left out. Where a name states a change or a piece, a line headed by the entry shows the natural chain unless it says otherwise.
UniProt O00329: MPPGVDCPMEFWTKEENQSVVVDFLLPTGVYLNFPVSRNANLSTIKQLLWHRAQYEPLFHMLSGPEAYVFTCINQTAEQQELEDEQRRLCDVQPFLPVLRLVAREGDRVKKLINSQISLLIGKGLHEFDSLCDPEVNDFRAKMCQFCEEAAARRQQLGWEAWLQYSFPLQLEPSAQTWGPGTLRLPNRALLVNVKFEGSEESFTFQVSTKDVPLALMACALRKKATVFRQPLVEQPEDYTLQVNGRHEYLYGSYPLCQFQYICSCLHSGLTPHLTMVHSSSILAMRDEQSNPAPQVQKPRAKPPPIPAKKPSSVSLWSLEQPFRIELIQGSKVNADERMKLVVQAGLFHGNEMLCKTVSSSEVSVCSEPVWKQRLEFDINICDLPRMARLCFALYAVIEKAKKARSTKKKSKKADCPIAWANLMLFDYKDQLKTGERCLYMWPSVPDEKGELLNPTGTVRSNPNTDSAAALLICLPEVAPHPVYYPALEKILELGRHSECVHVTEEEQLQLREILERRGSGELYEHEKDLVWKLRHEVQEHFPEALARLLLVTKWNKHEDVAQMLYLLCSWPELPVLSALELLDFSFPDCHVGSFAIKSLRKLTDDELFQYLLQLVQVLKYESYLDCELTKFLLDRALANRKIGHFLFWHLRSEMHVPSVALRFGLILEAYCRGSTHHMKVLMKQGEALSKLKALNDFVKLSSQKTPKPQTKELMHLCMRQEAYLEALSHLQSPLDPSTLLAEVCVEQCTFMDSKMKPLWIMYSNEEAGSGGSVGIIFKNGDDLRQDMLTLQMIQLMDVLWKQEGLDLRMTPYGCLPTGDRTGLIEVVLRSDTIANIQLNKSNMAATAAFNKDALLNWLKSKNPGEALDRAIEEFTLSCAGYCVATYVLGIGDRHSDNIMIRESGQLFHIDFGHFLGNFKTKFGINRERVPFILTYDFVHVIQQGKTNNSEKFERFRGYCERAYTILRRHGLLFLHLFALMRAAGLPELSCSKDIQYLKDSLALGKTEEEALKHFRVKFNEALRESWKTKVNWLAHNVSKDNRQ
UniProt P42336, whole entry: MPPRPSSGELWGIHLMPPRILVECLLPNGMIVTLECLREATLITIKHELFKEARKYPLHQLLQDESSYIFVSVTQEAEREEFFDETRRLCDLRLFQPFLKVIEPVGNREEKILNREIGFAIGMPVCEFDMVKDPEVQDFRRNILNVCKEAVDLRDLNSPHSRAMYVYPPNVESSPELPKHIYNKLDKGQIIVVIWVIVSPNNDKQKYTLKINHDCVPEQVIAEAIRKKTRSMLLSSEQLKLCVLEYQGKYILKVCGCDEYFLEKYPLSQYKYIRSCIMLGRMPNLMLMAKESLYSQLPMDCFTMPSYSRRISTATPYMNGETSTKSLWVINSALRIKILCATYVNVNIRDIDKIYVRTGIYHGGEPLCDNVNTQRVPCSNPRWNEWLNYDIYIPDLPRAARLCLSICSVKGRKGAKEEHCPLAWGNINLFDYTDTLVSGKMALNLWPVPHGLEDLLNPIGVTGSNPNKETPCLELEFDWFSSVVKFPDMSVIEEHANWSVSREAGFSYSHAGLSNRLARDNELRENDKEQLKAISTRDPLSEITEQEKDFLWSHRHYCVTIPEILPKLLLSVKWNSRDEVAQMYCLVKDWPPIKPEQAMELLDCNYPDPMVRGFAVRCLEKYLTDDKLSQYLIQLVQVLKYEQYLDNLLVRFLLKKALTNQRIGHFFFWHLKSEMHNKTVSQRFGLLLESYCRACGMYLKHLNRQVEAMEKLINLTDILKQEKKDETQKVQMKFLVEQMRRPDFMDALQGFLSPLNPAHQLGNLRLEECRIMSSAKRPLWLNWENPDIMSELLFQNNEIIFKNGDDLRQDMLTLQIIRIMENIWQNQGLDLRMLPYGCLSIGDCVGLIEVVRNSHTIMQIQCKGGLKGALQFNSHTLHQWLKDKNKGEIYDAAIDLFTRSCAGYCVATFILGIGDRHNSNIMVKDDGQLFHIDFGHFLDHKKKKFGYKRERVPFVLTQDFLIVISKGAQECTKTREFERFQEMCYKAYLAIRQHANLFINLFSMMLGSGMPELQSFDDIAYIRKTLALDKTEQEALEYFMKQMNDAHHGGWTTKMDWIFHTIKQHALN
UniProt P42338: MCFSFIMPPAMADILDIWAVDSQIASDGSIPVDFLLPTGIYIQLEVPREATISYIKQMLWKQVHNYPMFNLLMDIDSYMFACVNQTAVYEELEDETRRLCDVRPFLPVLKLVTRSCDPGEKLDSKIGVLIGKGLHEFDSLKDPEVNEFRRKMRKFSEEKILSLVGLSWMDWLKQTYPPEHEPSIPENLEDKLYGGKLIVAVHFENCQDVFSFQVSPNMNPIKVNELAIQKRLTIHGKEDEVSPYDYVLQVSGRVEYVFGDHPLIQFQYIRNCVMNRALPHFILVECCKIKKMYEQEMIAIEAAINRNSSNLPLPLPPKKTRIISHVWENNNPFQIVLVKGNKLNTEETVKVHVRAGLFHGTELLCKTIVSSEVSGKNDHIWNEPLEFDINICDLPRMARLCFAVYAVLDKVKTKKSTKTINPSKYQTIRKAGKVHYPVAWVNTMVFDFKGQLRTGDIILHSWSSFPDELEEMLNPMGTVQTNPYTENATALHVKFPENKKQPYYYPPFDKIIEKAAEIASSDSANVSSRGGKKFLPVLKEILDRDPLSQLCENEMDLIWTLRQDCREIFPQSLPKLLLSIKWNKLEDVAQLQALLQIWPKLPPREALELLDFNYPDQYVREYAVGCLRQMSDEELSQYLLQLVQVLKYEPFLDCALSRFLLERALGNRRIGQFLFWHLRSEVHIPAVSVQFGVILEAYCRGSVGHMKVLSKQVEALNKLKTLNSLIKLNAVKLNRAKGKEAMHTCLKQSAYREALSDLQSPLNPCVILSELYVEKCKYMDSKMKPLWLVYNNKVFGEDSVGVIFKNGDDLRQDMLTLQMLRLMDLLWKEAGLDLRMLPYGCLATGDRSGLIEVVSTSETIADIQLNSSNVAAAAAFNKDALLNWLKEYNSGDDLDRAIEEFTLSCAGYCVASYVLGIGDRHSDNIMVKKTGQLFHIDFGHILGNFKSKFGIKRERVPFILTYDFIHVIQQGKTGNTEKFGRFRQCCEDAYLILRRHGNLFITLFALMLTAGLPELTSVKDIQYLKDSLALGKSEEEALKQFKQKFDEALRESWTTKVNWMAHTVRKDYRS
UniProt P48736: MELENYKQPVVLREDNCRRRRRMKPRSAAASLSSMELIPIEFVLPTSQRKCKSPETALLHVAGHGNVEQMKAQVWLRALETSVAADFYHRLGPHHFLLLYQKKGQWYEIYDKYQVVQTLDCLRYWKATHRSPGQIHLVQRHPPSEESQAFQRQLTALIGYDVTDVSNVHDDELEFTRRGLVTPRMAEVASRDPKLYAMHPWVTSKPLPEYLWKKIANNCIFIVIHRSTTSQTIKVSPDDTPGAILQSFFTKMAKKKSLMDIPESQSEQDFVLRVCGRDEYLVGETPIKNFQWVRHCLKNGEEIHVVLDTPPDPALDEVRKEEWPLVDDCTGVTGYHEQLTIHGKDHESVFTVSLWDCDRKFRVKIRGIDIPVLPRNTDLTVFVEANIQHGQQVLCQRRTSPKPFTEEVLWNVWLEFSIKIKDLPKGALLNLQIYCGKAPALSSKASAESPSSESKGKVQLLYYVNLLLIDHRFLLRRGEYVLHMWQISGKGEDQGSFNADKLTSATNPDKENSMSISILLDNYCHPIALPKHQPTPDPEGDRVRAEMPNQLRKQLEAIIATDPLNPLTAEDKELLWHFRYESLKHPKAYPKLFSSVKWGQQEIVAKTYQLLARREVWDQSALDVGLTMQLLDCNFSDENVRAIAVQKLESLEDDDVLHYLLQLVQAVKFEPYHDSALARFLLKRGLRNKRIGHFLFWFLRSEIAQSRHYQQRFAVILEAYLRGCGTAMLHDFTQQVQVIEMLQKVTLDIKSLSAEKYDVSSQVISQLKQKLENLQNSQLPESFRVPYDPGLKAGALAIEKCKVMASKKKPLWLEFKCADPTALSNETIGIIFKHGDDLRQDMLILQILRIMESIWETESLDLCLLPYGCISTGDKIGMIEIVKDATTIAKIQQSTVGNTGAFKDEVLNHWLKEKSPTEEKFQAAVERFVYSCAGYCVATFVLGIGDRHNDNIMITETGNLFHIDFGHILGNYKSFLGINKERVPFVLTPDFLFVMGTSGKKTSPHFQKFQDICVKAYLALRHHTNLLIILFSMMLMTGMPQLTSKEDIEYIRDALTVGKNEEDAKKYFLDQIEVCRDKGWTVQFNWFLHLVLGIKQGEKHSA

Key:
PI3Kδ = PI3Kδ (Homo sapiens, UniProt O00329); assay: PI3Kδ enzyme residence time; format: binding; details: p110δ (printed p1105)
[1] = system: the other three class I isoforms; assay: Enzyme residence time, other class I PI3K isoforms; format: binding
PI3K p110δ = PI3K p110δ (Homo sapiens, UniProt O00329); format: biochemical
[2] = system: autoantibody-mediated cutaneous lesions; assay: Immunization-induced mouse model of epidermolysis bullosa acquista (EBA); format: in vivo, B6.SJL-H2s mice; details: 6 week treatment; LAS191954 3 mg/kg/day or methylprednisolone 20 mg/kg/day orally
Description: Induction of experimental EBA was performed as described in Iwata H, Bieber K, Tiburzy B et al., J Immunol. 2013; 191:2978-2988. Briefly, 6-10 week B6.SJL-H2s mice were immunized with an emulsion of a recombinant protein encompassing the vWFA2 binding domain of mouse type VII collagen (COL7) in adjuvant (Titermax). After immunization, mice were weekly evaluated for the presence and extend of clinical disease, measured as percentage of body surface affected by skin lesions (erythema, blisters, erosions and crusts).
Treatments were carried out over a 6-week period, and mice were evaluated for the extend of clinical disease (primary endpoint) weekly. Clinical manifestations were scored 0 to 5, corresponding to 0%, <1%, ≧1% to <5%, ≧5% to <10%, ≧10% to <20% of body surface area affected, respectively. Area under Curve (AUC) was calculated from the score at inclusion, 1, 2, 3, 4, 5 and 6 weeks after allocation to treatment. For better comparability between experiments, the affected body surface area at weeks 1-6 was related to that at inclusion (set at 1).
Body weight was monitored weekly during treatment.

PI3K p110α = PI3K p110α (Homo sapiens, UniProt P42336)
PI3K p110β = PI3K p110β (Homo sapiens, UniProt P42338)
PI3K p110γ = PI3K p110γ (Homo sapiens, UniProt P48736)
PI3Kβ = PI3Kβ (Homo sapiens, UniProt P42338); details: HUVEC (PI3Kβ) versus THP-1 (PI3Kδ)

## C[C@H](Nc1ncnc(N)c1C#N)c1nn2ccc(C#N)c2c(=O)n1-c1ccccc1 [LAS191954, (S)-2-(1-(6-amino-5-cyanopyrimidin-4-ylamino)ethyl)-4-oxo-3-phenyl-3,4-dihydropyrrolo[1,2-f][1,2,4]triazine-5-carbonitrile]
PI3Kδ
  residence time (time interval in which dissociation of 50% of the inhibitor occurs): 17 min
PI3Kδ; read-out: residence time (time interval in which dissociation of 50% of the inhibitor occurs)
  residence time: 12 min
[1]
  residence time: < 1.4 min
PI3K p110δ
  Selectivity vs PI3Kδ: 1 fold
[2]
  clinical severity (body surface area affected by skin lesions relative to inclusion) versus vehicle: progressively and significantly (p<0.001 for weeks 4, 5 and 6) reduced the clinical severity
PI3K p110α
  Selectivity vs PI3Kδ: 3198 fold
PI3K p110β
  Selectivity vs PI3Kδ: 37 fold
PI3K p110γ
  Selectivity vs PI3Kδ: 28 fold
PI3Kβ
  cellular selectivity for the δ isoform: 38 fold
